Experimental data: PMC8040948 (Journal of medicinal chemistry, 2020)
One block for each molecule: values may come before it.

By UniProt entry, the sequences of proteins in these tests, tags left out.
UniProt P08684, whole entry: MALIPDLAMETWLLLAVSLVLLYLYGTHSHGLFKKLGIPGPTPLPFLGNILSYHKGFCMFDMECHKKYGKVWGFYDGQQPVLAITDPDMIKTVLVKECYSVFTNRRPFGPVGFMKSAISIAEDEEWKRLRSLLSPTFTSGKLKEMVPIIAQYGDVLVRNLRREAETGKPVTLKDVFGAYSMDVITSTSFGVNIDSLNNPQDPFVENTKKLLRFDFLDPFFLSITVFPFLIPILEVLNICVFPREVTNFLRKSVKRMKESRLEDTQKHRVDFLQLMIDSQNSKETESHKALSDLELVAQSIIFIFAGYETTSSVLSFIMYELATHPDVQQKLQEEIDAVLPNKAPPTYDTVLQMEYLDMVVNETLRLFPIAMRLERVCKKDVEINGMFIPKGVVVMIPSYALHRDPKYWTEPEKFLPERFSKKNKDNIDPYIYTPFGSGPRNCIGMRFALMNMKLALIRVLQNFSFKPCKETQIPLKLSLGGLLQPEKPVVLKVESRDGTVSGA
UniProt P05177, whole entry: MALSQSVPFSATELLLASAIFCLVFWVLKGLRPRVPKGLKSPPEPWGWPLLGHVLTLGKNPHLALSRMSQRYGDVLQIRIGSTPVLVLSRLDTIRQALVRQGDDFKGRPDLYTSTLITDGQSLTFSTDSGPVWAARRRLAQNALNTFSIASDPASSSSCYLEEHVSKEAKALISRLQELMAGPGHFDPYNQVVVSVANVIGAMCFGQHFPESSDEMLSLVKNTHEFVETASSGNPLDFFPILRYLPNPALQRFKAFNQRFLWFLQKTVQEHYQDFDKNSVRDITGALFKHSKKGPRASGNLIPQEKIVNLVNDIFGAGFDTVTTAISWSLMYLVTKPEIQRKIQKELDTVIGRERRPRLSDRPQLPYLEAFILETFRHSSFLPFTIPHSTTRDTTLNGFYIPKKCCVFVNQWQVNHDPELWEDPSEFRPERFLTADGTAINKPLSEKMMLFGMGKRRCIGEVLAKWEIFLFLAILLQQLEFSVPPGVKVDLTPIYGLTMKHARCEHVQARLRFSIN

Legend:
hP2Y14R = biological target: T1, hP2Y14R (Homo sapiens, UniProt Q15391); format: binding; settings: IC50 at hP2Y14R
T1 sequence (Q15391 1-338): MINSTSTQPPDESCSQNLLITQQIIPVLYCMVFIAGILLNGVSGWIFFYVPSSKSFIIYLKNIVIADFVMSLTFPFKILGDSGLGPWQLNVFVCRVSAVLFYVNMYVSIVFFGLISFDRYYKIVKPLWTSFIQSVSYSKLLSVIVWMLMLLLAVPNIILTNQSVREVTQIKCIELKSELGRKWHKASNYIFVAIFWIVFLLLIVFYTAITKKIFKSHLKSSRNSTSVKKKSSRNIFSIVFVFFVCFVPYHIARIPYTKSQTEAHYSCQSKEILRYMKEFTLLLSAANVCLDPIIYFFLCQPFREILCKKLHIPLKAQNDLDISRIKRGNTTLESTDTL

other P2YRs = settings: ref [8],[17]; cited from earlier work
CYP3A4 = CYP3A4 (Homo sapiens, UniProt P08684); experiment: CYP3A4 inhibition
CYP1A2 = CYP1A2 (Homo sapiens, UniProt P05177); experiment: CYP1A2 inhibition

IC50 (hP2Y14R): > 10 µM
Compound: Cc1c(C(=O)O)cc(-c2cn(-c3ccc(C(F)(F)F)cc3)nn2)cc1-c1ccc(C2CCNCC2)cc1 [Compound 34, 2-Methyl-4′-(piperidin-4-yl)-5-(1-(4-(trifluoromethyl)phenyl)-1H-1,2,3-triazol-4-yl)-[1,1′-biphenyl]-3-carboxylic Acid]

Compound: O=C(O)c1cc(-c2ccc(C3CCNCC3)cc2)c2ccc(-c3ccc(C(F)(F)F)cc3)cc2c1 [Compound 1, 4-[4-(4-piperidinyl)-phenyl]-7-[4-(trifluoromethyl)phenyl]-2-naphthalenecarboxylic acid, reference compound]
activity at other P2YRs (other P2YRs): inactive

Compound: O=C(O)c1cc(-c2ccc(C34CCN(CC3)CC4)cc2)c2ccc(-c3ccc(C(F)(F)F)cc3)cc2c1 [Compound 17, 4-(4-(Quinuclidin-4-yl)phenyl)-7-(4-(trifluoromethyl)phenyl)-2-naphthoic Acid]
IC50 (CYP3A4): 3.29 µM | IC50 (CYP1A2): 8.69 µM

IC50 (hP2Y14R): > 10 µM
Compound: NC(=O)c1ccc(-c2cc(C(=O)O)cc(-c3nc4cc(C(F)(F)F)ccc4[nH]3)c2)cc1 [Compound 32, 4′-Carbamoyl-5-(5-(trifluoromethyl)-1H-benzo[d]imidazol-2-yl)-[1,1′-biphenyl]-3-carboxylic Acid]
